# Measured affinities in a library of Ab-91 heavy chain variants

Values reported by Engelhart et al. 2022, doi:10.1038/s41597-022-01779-4 (FLAb copy).

Target: peptide PDVDLGDISGINAS, taken from heptad repeat 2 (HR2) of SARS-CoV-2 spike.

Each scFv is VL, the linker GGGGSGGGGSGGGGS, VH, as in the parent Ab-91, and differs from it in the CDRs of the heavy chain only.
VL: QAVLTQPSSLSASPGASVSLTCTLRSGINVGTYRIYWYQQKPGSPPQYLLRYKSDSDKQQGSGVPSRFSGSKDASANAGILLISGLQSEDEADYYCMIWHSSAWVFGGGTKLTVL
VH: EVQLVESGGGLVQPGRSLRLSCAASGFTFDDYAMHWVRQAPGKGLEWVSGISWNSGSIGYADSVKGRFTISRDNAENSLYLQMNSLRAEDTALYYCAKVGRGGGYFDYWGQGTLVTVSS

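The parent was found by panning a naive human phage display library on the peptide. Variants in AAYL51 differ from the parent at up to three CDR positions; double and triple changes were sampled at random. The scFvs were displayed on barcoded MATa yeast, the peptide on MATalpha yeast. After mating in shaken culture at 30 °C for 16 h, diploids were selected and their barcode pairs sequenced. Read counts were normalised to the haploid input and turned into Kd by a linear fit to BCL2-family pairs of known affinity, for each replicate. The assay was run in three technical replicates.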

The parent's heavy chain CDRs are GFTFDDYAMH, GISWNSGSIGYADSVK, VGRGGGYFDY; each variant's own CDRs replace them letter for letter. Values are log10 of the apparent Kd in nM; lower means stronger binding. The mean shown is taken over the replicates in which the pair was detected. "nd" marks a missing value. The strain was present, yet no cells mated with the target were sequenced in that replicate, which points to weak or no binding.

| # | CDR-H1 | CDR-H2 | CDR-H3 | replicates, log10 nM | mean log10 Kd (nM) | empty controls |
|---|---|---|---|---|---|---|
| 1 | GFTFDDYLMH | GISWNSGSIGYADSVK | VGRPYGYFDY | 3.91 nd nd | 3.91 | 1 of 9 (3.84) |
| 2 | GFIFDDRAMH | GIPWNSGSIGYADSVK | VGRGGGYFDY | nd nd nd | nd | 0 of 9 |
| 3 | GFTFDDYIMH | GISWNSGSIGYADWVK | VGRGGGYFDD | nd 4.24 nd | 4.24 | 2 of 9 (2.94) |
| 4 | GFTIDDYAMH | GISWNSGSFGYADSVK | VGRGGGYFDY | 2.98 3.11 3.06 | 3.05 | 4 of 9 (4.59) |
| 5 | GFTFDDYAMH | GFSWNSGSIGYADSVK | VGRIGGYFDY | 3.97 5.07 4.58 | 4.54 | 7 of 9 (4.86) |
| 6 | GFTFDDYAMH | GGSWNSGSIGNADSVK | VGRGDGYFDY | nd nd nd | nd | 1 of 9 (2.59) |
| 7 | GFGFDDVAMH | GISWNSGSIGYADSVK | VGRGGGYFDY | nd nd nd | nd | 0 of 9 |
| 8 | GFTFDDYAMH | GICWNSGSIGYADSVK | VGRGFGYFDY | 3.93 6.32 4.99 | 5.08 | 3 of 9 (4.45) |
| 9 | GFTFDDYAMH | GISWNSGSIGYADWVW | VGRGGGYFDG | 3.14 3.09 3.24 | 3.16 | 1 of 9 (5.47) |
| 10 | GFTFDDYAMH | GISWPSGSIGYADSVK | VPPGGGYFDY | 5.18 4.91 nd | 5.04 | 7 of 9 (5.06) |
| 11 | GFTFDDYAMH | GTSWNSGSIGYADSTK | VGRGPGYFDY | 4.77 4.32 4.73 | 4.61 | 2 of 9 (3.97) |
| 12 | GFTFDDYAMH | FISWNSGSIGYADYVK | VGRGGGYFDY | nd nd 4.90 | 4.90 | 5 of 9 (4.53) |
| 13 | GFTFDDYAMH | GISWNSGSICYADSVK | VGLGGGYSDY | nd nd nd | nd | 3 of 9 (5.06) |
| 14 | GFTFDSYAMH | GISWNSGSMGYADSVK | VGRGGGYRDY | nd 5.38 nd | 5.38 | 1 of 9 (4.21) |
| 15 | GFTFQDYAMH | GISWNEGSIGYADSVK | VDRGGGYFDY | 4.17 7.04 4.87 | 5.36 | 8 of 9 (5.23) |
| 16 | GFTFDDCAMH | GISWNSGSIGYADSVK | VGRGGHYYDY | 4.23 nd nd | 4.23 | 0 of 9 |
| 17 | GFTTDDYAMS | GISWNSGNIGYADSVK | VGRGGGYFDY | 4.76 nd nd | 4.76 | 3 of 9 (4.81) |
| 18 | GFTFDDYFMH | GISWNYGSIGYADSVK | VGRGGGYSDY | nd nd nd | nd | 3 of 9 (4.49) |
| 19 | GFTFDDYAMH | GVSWKSGSIGYADSVK | VGRGGGYFDA | nd 4.09 nd | 4.09 | 1 of 9 (4.26) |
| 20 | GFTFDDYAMH | GIDWNSGSIGYADSVK | VGRGGGIFDY | 4.56 5.66 5.82 | 5.35 | 9 of 9 (5.12) |
| 21 | IFTFDDYAMH | GISWNSGSIGGADTVK | VGRGGGYFDY | nd nd nd | nd | 3 of 9 (4.91) |
| 22 | GFTFDDYAMH | GISWNSYSIGYADSVK | VGRGGGYFLA | nd 4.77 4.16 | 4.46 | 3 of 9 (3.90) |
| 23 | GFTFDDYAMH | GISWNSGWMGYADSVH | VGRGGGYFDY | nd nd nd | nd | 1 of 9 (2.50) |
| 24 | GETFDDYAMH | GISWNSGSIGTADSVK | VGGGGGYFDY | nd 5.43 nd | 5.43 | 2 of 9 (3.53) |
| 25 | GFSFDAYAMH | GISWNSGSIGYADSVK | VGRGGGYFDY | 1.63 1.71 1.29 | 1.54 | 7 of 9 (5.19) |
| 26 | GFTFDDYAMH | GISWNSGSIGWADVVK | VGRGGLYFDY | nd nd nd | nd | 1 of 9 (2.98) |
| 27 | GFTFDDAAML | GISWNSGSIGYADSVK | VGRIGGYFDY | 5.14 nd nd | 5.14 | 3 of 9 (3.94) |
| 28 | GFTFDDYAMH | GISWNSGSIGYSDGVK | VGRGGGYFDY | nd nd nd | nd | 1 of 9 (4.11) |
| 29 | GFTFDDYAMH | GISWNSGSIGYGDSVK | VGRGGYYFLY | 4.37 nd nd | 4.37 | 2 of 9 (3.56) |
| 30 | GFTFDDWAMH | GISWNSGSIGMADSVK | VGRGFGYFDY | nd nd nd | nd | 4 of 9 (4.64) |
| 31 | GLTFDDYAMH | GIDWNSGSIGIADSVK | VGRGGGYFDY | nd nd nd | nd | 0 of 9 |
| 32 | GFTFDDYAMH | GISWNSGSIEYADSVK | VGRGGGYRDY | nd nd nd | nd | 2 of 9 (4.10) |
| 33 | GFTFDDYAMH | GISWNSGSIGFADSVG | VGRMGGYFDY | 4.65 5.56 nd | 5.11 | 2 of 9 (4.41) |
| 34 | GFTFDDYAMH | GISWNSGSCGKADSVK | VGRGGGCFDY | nd nd nd | nd | 0 of 9 |
| 35 | GFTFDDYAMH | GISWNSGSTGYADSVK | VGSGGGYFDY | 0.81 0.77 0.20 | 0.59 | 3 of 9 (3.78) |
| 36 | GFTFDDYANH | GISWNSGSIGYADSVK | VGRGGKYFDI | nd nd nd | nd | 1 of 9 (4.73) |
| 37 | GFTFDDYAMH | GISWTSGGIGYADSRK | VGRGGGYFDY | nd nd nd | nd | 0 of 9 |
| 38 | GFTPDDYAMH | GISWNSGSIGYADSVK | VGRVGIYFDY | 3.91 nd nd | 3.91 | 0 of 9 |
| 39 | GFTFDDYACH | GKSWNSGSIGYADSVK | VGRGGGYFDY | 4.60 4.86 nd | 4.73 | 4 of 9 (3.84) |
| 40 | GFPFDDYAMH | GISSNSGSIGYADSVK | VGRGGGYFDD | 3.26 nd nd | 3.26 | 2 of 9 (3.29) |
| 41 | GFTFDDYAMH | GTSWNSGSIGYADNVK | VGRGGGYFRY | 4.29 4.28 4.35 | 4.31 | 5 of 9 (4.58) |
| 42 | GFTFDDYAMH | GIQLNSGSIGYADSVK | VGRGGGYFAY | nd 6.06 nd | 6.06 | 1 of 9 (4.15) |
| 43 | KFTFDDYAMH | GISWNSTSIGYADSVK | VGRGPGYFDY | 3.76 nd 2.56 | 3.16 | 0 of 9 |
| 44 | GFTFDDYAMH | GISWNSGSVGYADSVK | YGRGGGYFDT | nd nd nd | nd | 0 of 9 |
| 45 | GFTFDAYAMH | GISWNSGSIGYADSVK | VGRTKGYFDY | 5.00 6.63 5.57 | 5.74 | 7 of 9 (4.70) |
| 46 | GFTFDDYDMH | GISWNSGSIGYADYVK | VGVGGGYFDY | 4.30 5.24 nd | 4.77 | 6 of 9 (4.47) |
| 47 | GFTFDDYAMH | GYSWNSGSIGYADSVK | VGRGGGYEDY | 5.79 5.93 nd | 5.86 | 1 of 9 (4.59) |
| 48 | GFDTDDYAMH | GISWNSGSIGYADSVK | VGRGGGFFDY | 4.07 nd nd | 4.07 | 0 of 9 |
| 49 | GFTFDDYAMH | GISWNPGSIGYADSVK | VGRGGGYFGY | nd 4.90 nd | 4.90 | 3 of 9 (4.34) |

The opening 5 entries, copied out:

CDR-H1,CDR-H2,CDR-H3,"replicates, log10 nM",mean log10 Kd (nM),empty controls
GFTFDDYLMH,GISWNSGSIGYADSVK,VGRPYGYFDY,3.91 nd nd,3.91,1 of 9 (3.84)
GFIFDDRAMH,GIPWNSGSIGYADSVK,VGRGGGYFDY,nd nd nd,nd,0 of 9
GFTFDDYIMH,GISWNSGSIGYADWVK,VGRGGGYFDD,nd 4.24 nd,4.24,2 of 9 (2.94)
GFTIDDYAMH,GISWNSGSFGYADSVK,VGRGGGYFDY,2.98 3.11 3.06,3.05,4 of 9 (4.59)
GFTFDDYAMH,GFSWNSGSIGYADSVK,VGRIGGYFDY,3.97 5.07 4.58,4.54,7 of 9 (4.86)

As a blank, each scFv also met three strains without target: over library AAYL51, 21% of these pairings were detected, typically at 4.54 and seldom below 3.26. The control count says in how many pairings with the empty strains this scFv gave a signal, with their mean in brackets. For reference, the parent read 1.86 as the reference entry and 0.88 as a member of this library.